Reference: PubChem BioAssay AID651821 (The Scripps Research Institute Molecular Screening Center, 2012)
The entries are a selection whose mix differs from that of the whole data set. Calls of active or inactive are those of the source.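 How the source made its calls: active means inhibition above the plate cutoff, the mean of all test compounds on that plate plus 3 SD (cut at about 35% in these data); inactive means the rest.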

assay: small molecules binding CAG repeat RNA – biochemical, fluorescence, primary screen (AID 651821); conditions: r(CAG) RNA repeat, TO-PRO-1 dye displacement fluorescence; at 3 µM; hits give high values;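 further: 0% = DMSO alone and 100% = 100 µM mitoxantrone as full dye displacement; higher means more dye released from RNA so lower well fluorescence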

Structure (SMILES)	inhibition
COc1ccccc1OP(C)(=O)Nc1cccc(Br)c1 (configuration not stated)	inactive: -2.36%
CCOC(=O)c1ccc(NP(C)(=O)Oc2cc(C)cc(C)c2)cc1 (configuration not stated)	inactive: -6.8%
Cc1cc(C)cc(OP(C)(=O)Nc2ccc(C)cc2C)c1 (configuration not stated)	inactive: -6.78%
Cc1ccc(C)c(NP(C)(=O)Oc2ccccc2)c1 (configuration not stated)	inactive: -6.31%
CP(=O)(Nc1cccc(Br)c1)Oc1ccccc1 (configuration not stated)	inactive: -4.26%
Cc1cc(C)cc(OP(C)(=O)Nc2ccccn2)c1 (configuration not stated)	inactive: -5.13%
O=[N+]([O-])c1cc([N+](=O)[O-])c(-n2nnc3ccccc32)c([N+](=O)[O-])c1	inactive: 0.22%
CN(Cc1cccnc1)C(=O)COc1ccc(Cl)c(Cl)c1.O=[N+]([O-])c1cc([N+](=O)[O-])c(O)c([N+](=O)[O-])c1	inactive: 1.16%
O=[N+]([O-])c1cc([N+](=O)[O-])c(-c2cnn(-c3ccccc3)c2)c([N+](=O)[O-])c1	inactive: 1.84%
Cc1nc2ccc3ccccc3c2s1.O=[N+]([O-])c1cc([N+](=O)[O-])c(O)c([N+](=O)[O-])c1	inactive: 6.32%
O=[N+]([O-])c1cc([N+](=O)[O-])c(Nc2nnnn2CCO)c([N+](=O)[O-])c1	inactive: 5.85%
CCOC(=O)C(CC)C1=NC(C)(C)Cc2ccccc21.O=[N+]([O-])c1cc([N+](=O)[O-])c(O)c([N+](=O)[O-])c1 (configuration not stated)	inactive: -8.19%
COc1ccccc1OP(C)(=O)Nc1c(C)cccc1C (configuration not stated)	inactive: -1.98%
CN1CCCCC1COC(=O)C1(O)c2ccccc2CCc2ccccc21 (configuration not stated)	inactive: -3.58%
COc1ccc(-c2ccccn2)cc1.O=[N+]([O-])c1cc([N+](=O)[O-])c(O)c([N+](=O)[O-])c1	inactive: 2.74%
CP(=O)(Nc1ccc(SC(F)(F)F)cc1)Oc1ccccc1 (configuration not stated)	inactive: -10.6%
CCCOc1ccc(NP(C)(=O)Oc2ccc(Cl)cc2)cc1 (configuration not stated)	inactive: -9.4%
CP(=S)(Nn1cnnc1)Oc1ccccc1 (configuration not stated)	inactive: 1.54%
CP(=O)(Nc1ccccc1Br)Oc1ccccc1 (configuration not stated)	inactive: -4.31%
COc1ccccc1OP(C)(=O)Nc1ccccc1 (configuration not stated)	inactive: -3.36%
Cc1cccc(C)c1OP(C)(=O)Nc1ccc(SC(F)(F)F)cc1 (configuration not stated)	inactive: 0.33%

Structure (SMILES)	inhibition
CP(=O)(Nc1ccc(SC(F)(F)F)cc1)Oc1ccc(Cl)cc1 (configuration not stated)	inactive: -4.04%
CP(=O)(Oc1ccccc1)OC(c1ccccc1)C(F)(F)F (configuration not stated)	inactive: -7.89%
CCc1ccc(OP(C)(=O)N2CCN(c3ccc([N+](=O)[O-])cc3)CC2)cc1 (configuration not stated)	inactive: -6.94%
CP(=O)(NC(=O)Nc1ccccc1)Oc1ccccc1 (configuration not stated)	inactive: 1.95%
Cc1cc(C)cc(OP(C)(=O)Nc2ccc(SC(F)(F)F)cc2)c1 (configuration not stated)	inactive: -6.95%
CCOC(=O)c1ccc(NP(C)(=O)Oc2ccc(OC)cc2)cc1 (configuration not stated)	inactive: -8.58%
O=[N+]([O-])c1cc([N+](=O)[O-])c(O)c([N+](=O)[O-])c1.c1ccc(Oc2ccncc2)cc1	inactive: 2.48%
CCOP(C)(=S)SCC(=O)NC(C)C(=O)O (configuration not stated)	inactive: -1.52%
CP(=O)(Nc1ccccn1)Oc1ccc(Cl)cc1 (configuration not stated)	inactive: -1.96%
CCN(CC)CCCOC(=O)C(O)(c1ccccc1)c1ccccc1	inactive: -1.68%
COc1ccccc1-c1ccccn1.O=[N+]([O-])c1cc([N+](=O)[O-])c(O)c([N+](=O)[O-])c1	inactive: 0.55%
O=[N+]([O-])c1cc([N+](=O)[O-])c(Nc2cccnc2)c([N+](=O)[O-])c1	inactive: 4.51%
O=[N+]([O-])c1ccc2c(c1)C=Nc1ccccc1O2	inactive: 3.96%
CC(C)(C)c1ccc(OP(C)(=O)Nc2ccc(SC(F)(F)F)cc2)cc1 (configuration not stated)	inactive: -4.97%
Cc1cccc(C)c1OP(C)(N)=O (configuration not stated)	inactive: -1.32%
COc1ccccc1OP(C)(=O)Nc1ccc(C)cc1 (configuration not stated)	inactive: 3.77%
Cc1ccc(NP(C)(=O)Oc2ccccc2)c(C)c1 (configuration not stated)	inactive: -3.2%
CCOC(=O)c1ccc(NP(C)(=O)Oc2ccccc2)cc1 (configuration not stated)	inactive: -5.73%
Cc1cc(C)cc(OP(C)(N)=O)c1 (configuration not stated)	inactive: 1.19%
COc1ccccc1OP(C)(=O)Nc1cc(Cl)ccc1C (configuration not stated)	inactive: -4.99%
COc1ccc(OP(C)(=O)Nc2cccc(F)c2)cc1 (configuration not stated)	inactive: -2.45%
